Only a part is listed here, and it is no random draw. Records with an inconclusive call do not appear. The source made the active and inactive calls.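 Rule for the calls: active = inhibition of receptor movement into the nucleus at or above a set limit in both runs, with normal cell brightness and cell count; inconclusive = limit reached in only one run, brightness and count normal; inactive = the rest.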

This experiment in a line: dynein cargo transport inhibitors, GR-EGFP translocation, confirmation, imaging, high-content imaging, GR-EGFP cells (AID 463116).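 Note: dexamethasone at 1 µM final in well for 30 min; nuclear minus cytoplasmic GR-EGFP mean intensity difference in channel 2.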 Conditions: 3617.4 GR-EGFP nuclear translocation imaging, dexamethasone-induced; at 20 µM; stronger effect = higher value.
In general, inhibition refers to the percentage by which the read-out fell short of the control. `O=[N+]([O-])c1cc([N+](=O)[O-])c(-n2nnc3ccccc32)c([N+](=O)[O-])c1`: the inhibition is active: 59.3%.

(Values after PubChem BioAssay AID463116 (University of Pittsburgh Molecular Library Screening Center, 2010).)
